Measured values taken from US9221831B2, “Buprenorphine analogs” (dated 2015).

Protein sequences, listed by entry. Tags and fused reporters are not part of them. Lines headed by an entry give the natural chain unless they say otherwise; changes in a name come on top.
UniProt P41146: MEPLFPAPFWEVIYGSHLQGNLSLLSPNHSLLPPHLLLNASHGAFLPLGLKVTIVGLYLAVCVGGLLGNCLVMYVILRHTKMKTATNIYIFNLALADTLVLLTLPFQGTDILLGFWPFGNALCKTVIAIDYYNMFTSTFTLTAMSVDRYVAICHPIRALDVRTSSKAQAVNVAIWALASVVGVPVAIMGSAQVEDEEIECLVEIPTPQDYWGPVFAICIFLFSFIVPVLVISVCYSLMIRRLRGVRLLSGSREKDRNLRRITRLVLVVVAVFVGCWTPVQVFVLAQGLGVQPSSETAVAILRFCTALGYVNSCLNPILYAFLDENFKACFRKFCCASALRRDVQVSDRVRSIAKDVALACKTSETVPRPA

Legend:
ORL-1 = ORL-1 (Homo sapiens (Human), UniProt P41146); conditions: read-out: IC50 (at least partial agonist for ORL-1); Wnendt et al., Molec. Pharmacol. 1999; cited from earlier work
rats [1] = experiment: rat hot plate test (acute pain); conditions: subcutaneously, at 1, 3 and 5 hours following drug administration (FIG. 2)
rats [2] = experiment: rat tail flick test (acute pain); conditions: subcutaneously

Compound	IC50 (ORL-1)	hot plate latencies (rats [1]; 1 mg/kg)	hot plate latencies (rats [1]; 3 mg/kg)	tail flick latencies (rats [2]; 1 mg/kg, at 1 hour following drug administration (FIG. 1))	tail flick latencies (rats [2]; 3 mg/kg, at 1, 3 and 5 hours after drug administration, compared to vehicle treated rats (FIG. 1))
7-benzylidenenaltrexone	10 µM				
CO[C@]12CC[C@@]3(C[C@@H]1COCc1ccccc1)[C@H]1Cc4ccc(O)c5c4[C@@]3(CCN1)[C@H]2O5		significantly increased	significantly increased	significantly increased	significantly increased
